These results are taken from ChEMBL document CHEMBL1136571, “Design, synthesis and structure-activity relationships of benzoxazinone-based factor Xa inhibitors” (Bioorg Med Chem Lett, 2003).

Chains of the proteins cited; added tags and fusions are not shown. Residues count along the entry.
UniProt P00742, 41-179 limits assumed: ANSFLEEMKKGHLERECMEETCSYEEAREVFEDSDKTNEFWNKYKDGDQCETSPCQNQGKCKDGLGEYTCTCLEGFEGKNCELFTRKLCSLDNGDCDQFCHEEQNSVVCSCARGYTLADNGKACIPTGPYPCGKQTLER
UniProt P00742, 235-488 limits assumed: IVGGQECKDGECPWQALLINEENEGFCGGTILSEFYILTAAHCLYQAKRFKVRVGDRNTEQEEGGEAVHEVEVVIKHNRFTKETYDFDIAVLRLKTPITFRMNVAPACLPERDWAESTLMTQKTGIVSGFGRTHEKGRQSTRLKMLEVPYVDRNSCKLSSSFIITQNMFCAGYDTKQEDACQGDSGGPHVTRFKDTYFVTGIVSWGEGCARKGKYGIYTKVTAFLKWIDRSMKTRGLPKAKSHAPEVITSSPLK

The term IC50 denotes the point on the concentration scale where inhibition reaches its midpoint.

This test has as its target Coagulation factor X (Homo sapiens, UniProt P00742). The test can be described thus: Inhibitory concentration to factor Xa.

`CC(=N)N1CCC(Oc2ccc(N(Cc3cc(C)nn3-c3cccc(C(=N)N)c3)S(C)(=O)=O)cc2)CC1` registered an IC50 of 6.92 µM.
